Experiments:
[1] = tested on: human cardiosphere-derived cells (CDCs); assay: Human CDC viability; conditions: escalating concentrations, 48 hour exposure
Experimental: Control groups received saline or HerPBK10 at equivalent concentration to HerMn. Treatments began at ˜200 mm^3 average tumor volume. Tumor volumes were measured before (day 1), during (day 3), and after (days 8, 15, and 22) injections of reagents. N=8-10 tumors/group. *p<0.05 (one-way ANOVA). […] N=3 per conc, from 3 separate experiments.
To assess translatability, the viability of human cardiosphere-derived cells (CDCs) in the presence of HerGa and/or HerMn was examined.

[2] = T1 relaxation shortening in solution; type: physicochemical

Substance	effect on CDC viability [1]	T1 (spin-lattice) relaxation shortening in solution [2]
sulfonated gallium(III) corrole [S2Ga]	no detectable effect on CDC viability	–
sulfonated manganese(III) corrole [S2Mn]	no detectable effect on CDC viability	significant T1 relaxation shortening

From patent US9850293B2, “Targeting trastuzumab-resistant HER2+ breast cancer with a HER3-targeting nanoparticle” (priority 2014, dated 2017)
